From paper PMC9841523, “Discovery of RMC-5552, a Selective Bi-Steric Inhibitor of mTORC1, for the Treatment of mTORC1-Activated Tumors” (Journal of Medicinal Chemistry, 2022) come the findings set out here.

SMILES strings stand for the structures.

In this assay the test system is 4EBP1 T37/T46 phosphorylation (mTORC1). Nature of the assay: AlphaLISA/MSD analysis of 4EBP1 phosphorylation in MDA-MB-468 cells. The format is cell-based. The following applies: pAKT IC50 versus p4EBP1 IC50, MDA-MB-468 cells. On the procedure: Cell culture and reagents. Cells were obtained from ATCC, grown in appropriate medium supplemented with 10% fetal bovine serum and 1% penicillin/streptomycin and maintained at 37 °C in a humidified incubator at 5% CO 2.
AlphaLISA and MesoScale Discovery (MSD) analysis of 4EBP1, S6K and AKT phosphorylation. mTOR substrate phosphorylation in MDA-MB-468 cells was assayed using AlphaLISA SureFire Ultra kits for p4EBP1 Thr37/46, p-P70S6K Thr389 and p-AKT1/2/3 Ser473 (PerkinElmer), and MSD Multi-Array Assay Systems for Phospho-4EBP1 (Thr37/46) and Phospho-AKT (Ser473) (MSD). Cells were seeded at 25,000 cells per well and exposed the next day to serial three-fold dilutions of compounds in complete medium with 0.1% dimethylsulfoxide (DMSO). After indicated incubation times, cells were lysed and AlphaLISA or MSD performed according to the manufacturers’ protocols. Samples were read using an EnVision Multilabel Plate Reader (PerkinElmer) using standard AlphaLISA settings or using an MSD plate reader. Data were plotted as a function of logM [compound] with a sigmoidal concentration response (variable slope) model fitted to the data to estimate the inhibitor half-maximum effective concentration (EC 50) in Prism 7 (GraphPad). Alternatively, results were analyzed as percentage of control in which 0% was set as signal from 1 μM Torin1 and 100% was set as the mean of DMSO wells on each plate, and inhibitor EC 50 was estimated as described
For the compound `CO[C@H]1C[C@@H]2CC[C@@H](C)[C@@](O)(O2)C(=O)C(=O)N2CCCC[C@H]2C(=O)O[C@H]([C@H](C)C[C@@H]2CC[C@@H](OCCCCc3cn(CCOCCOCCOCCOCCOCCOCCC(=O)NCCCCn4nc(-c5cc6cc(O)ccc6[nH]5)c5c(N)ncnc54)nn3)[C@H](OC)C2)CC(=O)[C@H](C)/C=C(\C)[C@@H](O)[C@@H](OC)C(=O)[C@H](C)C[C@H](C)/C=C/C=C/C=C/1C` [compound 25], the “selectivity (mTORC1/mTORC2 ratio)” value is on record as 0.3. Consider `CO[C@H]1C[C@@H]2CC[C@@H](C)[C@@](O)(O2)C(=O)C(=O)N2CCCC[C@H]2C(=O)O[C@H]([C@H](C)C[C@@H]2CC[C@@H](OCCCCc3cn(CCOCCOCCOCCOCCOCCOCCOCCOCCC(=O)N4CCc5cc(Cn6nc(-c7ccc8oc(N)nc8c7)c7c(N)ncnc76)ccc5C4)nn3)[C@H](OC)C2)CC(=O)[C@H](C)/C=C(\C)[C@@H](O)[C@@H](OC)C(=O)[C@H](C)C[C@H](C)/C=C/C=C/C=C/1C` [compound 21], for which the “selectivity (mTORC1/mTORC2 ratio)” value came to 20.0. The result for `COc1ccc(-c2ccc3ncc4c(c3c2)n(-c2ccc(N3CCN(C(=O)CCOCCOCCOCCOCCOCCOCCn5cc(CCCCO[C@@H]6CC[C@@H](C[C@@H](C)[C@@H]7CC(=O)[C@H](C)/C=C(\C)[C@@H](O)[C@@H](OC)C(=O)[C@H](C)C[C@H](C)/C=C/C=C/C=C(\C)[C@@H](OC)C[C@@H]8CC[C@@H](C)[C@@](O)(O8)C(=O)C(=O)N8CCCC[C@H]8C(=O)O7)C[C@H]6OC)nn5)CC3)c(C(F)(F)F)c2)c(=O)n4C)cn1` [compound 26] reads 9.3; that for `CO[C@H]1C[C@@H]2CC[C@@H](C)[C@@](O)(O2)C(=O)C(=O)N2CCCC[C@H]2C(=O)O[C@H]([C@H](C)C[C@@H]2CC[C@@H](OCCCCc3cn(CCOCCOCCOCCOCCOCCOCCOCCOCCC(=O)NCCCCn4nc(-c5cc6cc(O)ccc6[nH]5)c5c(N)ncnc54)nn3)[C@H](OC)C2)CC(=O)[C@H](C)/C=C(\C)[C@@H](O)[C@@H](OC)C(=O)[C@H](C)C[C@H](C)/C=C/C=C/C=C/1C` [compound 18], 12.9; that for `CO[C@H]1C[C@@H]2CC[C@@H](C)[C@@](O)(O2)C(=O)C(=O)N2CCCC[C@H]2C(=O)O[C@H]([C@H](C)C[C@@H]2CC[C@@H](OCCCCc3cn(CCOCCOCCOCCOCCOCCOCCOCCOCCC(=O)N4CCC(Cn5nc(-c6ccc7oc(N)nc7c6)c6c(N)ncnc65)CC4)nn3)[C@H](OC)C2)CC(=O)[C@H](C)/C=C(\C)[C@@H](O)[C@@H](OC)C(=O)[C@H](C)C[C@H](C)/C=C/C=C/C=C/1C` [compound 22], 2.7. On to `CO[C@H]1C[C@@H]2CC[C@@H](C)[C@@](O)(O2)C(=O)C(=O)N2CCCC[C@H]2C(=O)O[C@H]([C@H](C)C[C@@H]2CC[C@@H](OCCCCc3cn(CCOCCOCCOCCOCCOCCOCCOCCOCCC(=O)NCCCCn4nc(-c5ccc6oc(N)nc6c5)c5c(N)ncnc54)nn3)[C@H](OC)C2)CC(=O)[C@H](C)/C=C(\C)[C@@H](O)[C@@H](OC)C(=O)[C@H](C)C[C@H](C)/C=C/C=C/C=C/1C` [compound 16], for which the “selectivity (mTORC1/mTORC2 ratio)” value is listed as 2.8. Regarding `CO[C@H]1C[C@@H]2CC[C@@H](C)[C@@](O)(O2)C(=O)C(=O)N2CCCC[C@H]2C(=O)O[C@H]([C@H](C)C[C@@H]2CC[C@@H](OCCCCc3cn(CCOCCOCCOCCOCCOCCOCCC(=O)NCCCCn4nc(-c5cnc6[nH]ccc6c5)c5c(N)ncnc54)nn3)[C@H](OC)C2)CC(=O)[C@H](C)/C=C(\C)[C@@H](O)[C@@H](OC)C(=O)[C@H](C)C[C@H](C)/C=C/C=C/C=C/1C` [compound 24], the “selectivity (mTORC1/mTORC2 ratio)” value is given as 3.5. Turning to `CO[C@H]1C[C@@H]2CC[C@@H](C)[C@@](O)(O2)C(=O)C(=O)N2CCCC[C@H]2C(=O)O[C@H]([C@H](C)C[C@@H]2CC[C@@H](OCCOCc3cn(CCOCCOCCOCCOCCOCCOCCOCCOCCC(=O)NCCCCn4nc(-c5cc6cc(O)ccc6[nH]5)c5c(N)ncnc54)nn3)[C@H](OC)C2)CC(=O)[C@H](C)/C=C(\C)[C@@H](O)[C@@H](OC)C(=O)[C@H](C)C[C@H](C)/C=C/C=C/C=C/1C` [compound 17, reference compound], the “selectivity (mTORC1/mTORC2 ratio)” value came to 9.6. Turning to `CO[C@H]1C[C@@H]2CC[C@@H](C)[C@@](O)(O2)C(=O)C(=O)N2CCCC[C@H]2C(=O)O[C@H]([C@H](C)C[C@@H]2CC[C@@H](OCCCCc3cn(CCOCCOCCOCCOCCOCCC(=O)NCCCCn4nc(-c5ccc6oc(N)nc6c5)c5c(N)ncnc54)nn3)[C@H](OC)C2)CC(=O)[C@H](C)/C=C(\C)[C@@H](O)[C@@H](OC)C(=O)[C@H](C)C[C@H](C)/C=C/C=C/C=C/1C` [compound 28], the “selectivity (mTORC1/mTORC2 ratio)” value was 1.3.

For `CO[C@H]1C[C@@H]2CC[C@@H](C)[C@@](O)(O2)C(=O)C(=O)N2CCCC[C@H]2C(=O)O[C@H]([C@H](C)C[C@@H]2CC[C@@H](OCCCCc3cn(CCOCCOCCOCCOCCOCCOCCC(=O)NCCCCn4nc(-c5ccc6oc(N)nc6c5)c5c(N)ncnc54)nn3)[C@H](OC)C2)CC(=O)[C@H](C)/C=C(\C)[C@@H](O)[C@@H](OC)C(=O)[C@H](C)C[C@H](C)/C=C/C=C/C=C/1C` [compound 27], the “selectivity (mTORC1/mTORC2 ratio)” value amounted to 4.7.

In the case of `CO[C@H]1C[C@@H]2CC[C@@H](C)[C@@](O)(O2)C(=O)C(=O)N2CCCC[C@H]2C(=O)O[C@H]([C@H](C)C[C@@H]2CC[C@@H](OCCOCc3cn(CCOCCOCCOCCOCCOCCOCCOCCOCCC(=O)NCCCCn4nc(-c5ccc6oc(N)nc6c5)c5c(N)ncnc54)nn3)[C@H](OC)C2)CC(=O)[C@H](C)/C=C(\C)[C@@H](O)[C@@H](OC)C(=O)[C@H](C)C[C@H](C)/C=C/C=C/C=C/1C` [compound 3, RapaLink-1, reference compound], the “selectivity (mTORC1/mTORC2 ratio)” value was determined as 3.9. The result for `CO[C@H]1C[C@@H]2CC[C@@H](C)[C@@](O)(O2)C(=O)C(=O)N2CCCC[C@H]2C(=O)O[C@H]([C@H](C)C[C@@H]2CC[C@@H](OC(=O)NCCOCCOCCOCCOCCOCCOCCOCCOCCC(=O)NCCS(=O)(=O)c3ccc(C(=O)N4CCOc5ccc(-c6ccc(N)nc6)cc5C4)c(C)c3F)[C@H](OC)C2)CC(=O)[C@H](C)/C=C(\C)[C@@H](O)[C@@H](OC)C(=O)[C@H](C)C[C@H](C)/C=C/C=C/C=C/1C` [compound 31] reads 4.1; that for `CO[C@H]1C[C@@H]2CC[C@@H](C)[C@@](O)(O2)C(=O)C(=O)N2CCCC[C@H]2C(=O)O[C@H]([C@H](C)C[C@@H]2CC[C@@H](OCCCCc3cn(CCOCCOCCOCCOCCOCCOCCOCCOCCC(=O)NCCCCn4nc(-c5cnc6[nH]ccc6c5)c5c(N)ncnc54)nn3)[C@H](OC)C2)CC(=O)[C@H](C)/C=C(\C)[C@@H](O)[C@@H](OC)C(=O)[C@H](C)C[C@H](C)/C=C/C=C/C=C/1C` [compound 20], 17.0; that for `COc1ccc(-c2ccc3ncc4c(c3c2)n(C)c(=O)n4-c2ccc(N3CCN(C(=O)CCOCCOCCOCCOCCOCCOCCOCCOCCn4cc(CCCCO[C@@H]5CC[C@@H](C[C@@H](C)[C@@H]6CC(=O)[C@H](C)/C=C(\C)[C@@H](O)[C@@H](OC)C(=O)[C@H](C)C[C@H](C)/C=C/C=C/C=C(\C)[C@@H](OC)C[C@@H]7CC[C@@H](C)[C@@](O)(O7)C(=O)C(=O)N7CCCC[C@H]7C(=O)O6)C[C@H]5OC)nn4)CC3)c(C(F)(F)F)c2)cn1` [compound 19], 8.7.
